Binding of CDR-mutated scFvs to a peptide of the spike HR2 region

Target: peptide PDVDLGDISGINAS, taken from heptad repeat 2 (HR2) of SARS-CoV-2 spike.

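The parent was found by panning a naive human phage display library on the peptide. These sequences belong to a second round, designed from the earlier measurements on random variants of the parent. Their group label is 14L_GP_Gen (GP: Gaussian process model; Gen: genetic algorithm; a sequence that several methods proposed may carry one label only). The scFvs were displayed on barcoded MATa yeast, the peptide on MATalpha yeast. Binding brings cells together so that they mate, and sequencing counts the barcode pairs among the diploids. Scores were corrected for input abundance and mapped to Kd with protein pairs of known affinity run in the same pool. The assay was run in six technical replicates.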

The variants keep the heavy chain, the linker and the frameworks of Ab-14 (scFv order VH, the linker GGGGSGGGGSGGGGS, VL).
VH: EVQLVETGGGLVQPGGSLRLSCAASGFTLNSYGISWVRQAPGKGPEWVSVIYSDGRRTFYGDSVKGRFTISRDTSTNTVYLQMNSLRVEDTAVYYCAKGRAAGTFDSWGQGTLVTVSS
VL: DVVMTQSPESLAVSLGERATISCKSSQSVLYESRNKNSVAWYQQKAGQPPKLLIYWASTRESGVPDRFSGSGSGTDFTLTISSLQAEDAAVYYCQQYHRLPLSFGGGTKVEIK

Positions count from residue 1 of the parent VL; S25L puts L in place of S. The read-out is the apparent dissociation constant on a log10 scale (nM): the lower, the stronger. A pair that was not seen in that replicate is written "nd"; this usually means weak binding, but a binder can also be missed. The authors' rule: three or more of the six replicates give a measured affinity, fewer mean a poor binder. Values of this round are not directly comparable with the first-round values of the same sequences. Nonspecific signal, from three strains lacking the peptide, appeared in 4% of pairings of all light chain designs, centred on 2.64 (5% of these signals below 1.59); values are not corrected for it. Also given: how often the same scFv was detected with the empty control strains.

For S25L V29E N35W W56N, the assay gave 0.78, 0.44, 0.60, 0.63, 0.67, 0.80 (controls 1 of 18).
For S25L V29E W56Q E61L, the assay gave 0.08, -0.22, -0.08, -0.42, -0.14, 0.02 (controls 0 of 18).
For S25L S26P L30P W56N T59Q, the assay gave -0.11, -0.24, -0.05, -0.55, -0.32, -0.14 (controls 1 of 18).
For S25L L30Q W56E, the assay gave 0.28, 0.36, 0.02, 0.29, 0.24, 0.14 (controls 0 of 18).
For S25L W56E S62W, the assay gave 0.09, -0.05, -0.17, -0.20, -0.19, 0.04 (controls 0 of 18).
For S25L S26Y L30D W56N, the assay gave 0.02, -0.03, -0.20, -0.11, -0.28, -0.01 (controls 2 of 18).
For S25L V29D S38N W56M, the assay gave 0.14, 0.03, 0.00, -0.21, 0.10, -0.02 (controls 2 of 18).
For S25L Y31M W56G, the assay gave 0.58, 0.93, 0.16, 0.40, 0.23, 0.45 (controls 0 of 18).
For S25L V29W W56N E61L S62D, the assay gave -0.02, 0.07, -0.31, -0.36, -0.33, -0.13 (controls 0 of 18).
For S25L V29W S33Q W56N T59Q, the assay gave 0.11, 0.07, -0.03, -0.08, -0.03, 0.16 (controls 2 of 18).
For S25V Q27P V29M W56E, the assay gave -0.09, 0.01, -0.21, -0.27, -0.25, -0.07 (controls 1 of 18).
For S25L K36S S38N W56D, the assay gave -0.06, -0.33, -0.49, -0.22, -0.27, -0.15 (controls 1 of 18).
For S25F V29E W56N T59Q E61M, the assay gave 0.66, nd, nd, nd, nd, 1.13 (controls 0 of 18).
For S25V S33Q W56N E61M, the assay gave 0.26, 0.08, -0.25, -0.07, 0.09, 0.39 (controls 1 of 18).
For S25L V29W W56N S62L, the assay gave 0.15, -0.14, -0.38, -0.21, -0.23, -0.02 (controls 2 of 18).
For S25V V29F W56E E61C, the assay gave 0.42, 0.25, 0.22, 0.18, 0.33, 0.51 (controls 3 of 18).
For S25L S26Q V29W K36C W56N T59Q, the assay gave 0.56, 0.48, 0.29, 0.48, 0.37, 0.56 (controls 4 of 18).
For S25L S26D W56A, the assay gave 0.49, -0.20, 0.47, -0.30, 0.10, 0.08 (controls 0 of 18).
For S25L Q27M W56E, the assay gave -0.22, -0.34, -0.45, -0.46, -0.45, -0.17 (controls 0 of 18).
For S25F L30G W56D, the assay gave -0.15, -0.34, -0.38, -0.53, -0.40, -0.30 (controls 5 of 18).
For S25L S26Q L30H W56N E61L, the assay gave 0.18, 0.29, 0.19, 0.11, 0.26, 0.48 (controls 0 of 18).
For S25L S26Q V29H W56N E61M, the assay gave 0.37, 0.18, 0.36, 0.19, 0.22, 0.35 (controls 1 of 18).
For S25L S26Q V29W W56S T59Q, the assay gave 0.64, 0.47, 0.34, 0.21, 0.28, 0.63 (controls 0 of 18).
For S25V Q27P V29E W56E, the assay gave -0.15, -0.11, -0.14, -0.38, -0.20, -0.15 (controls 2 of 18).
For S25I S26E V29E W56N T59Q, the assay gave -0.25, -0.47, -0.55, -0.75, -0.60, -0.46 (controls 2 of 18).
For S25L V29H W56Q T59Q, the assay gave -0.32, -0.30, -0.51, -0.70, -0.56, -0.28 (controls 0 of 18).
For S25L S26M W56N S62Q, the assay gave -0.24, -0.28, -0.40, -0.45, -0.25, 0.04 (controls 0 of 18).
For S25L Q27G W56N, the assay gave -0.22, -0.53, -0.49, -0.54, -0.49, -0.30 (controls 1 of 18).
For S25L S26Q W56G T59C, the assay gave 0.10, -0.07, -0.07, 0.08, 0.11, 0.34 (controls 1 of 18).
For S25L V29E N35A W56N, the assay gave -0.12, -0.05, 0.02, -0.29, -0.11, 0.12 (controls 0 of 18).
For S25L V29E K36T W56N, the assay gave -0.06, -0.19, -0.45, -0.01, -0.36, -0.15 (controls 1 of 18).
For S25L Q27G L30M W56E, the assay gave -0.24, -0.23, -0.26, -0.42, -0.47, -0.16 (controls 2 of 18).
For S25L V29D L30E W56E, the assay gave -0.31, -0.40, -0.49, -0.64, -0.55, -0.35 (controls 2 of 18).
For S25L S38N W56G Q96D, the assay gave -0.41, -0.42, -0.61, -0.48, -0.68, -0.39 (controls 0 of 18).
For S25L S26Q V29F W56E E61C, the assay gave 0.05, 0.22, -0.25, -0.14, -0.26, 0.10 (controls 1 of 18).
For S25L L30P S38N W56D, the assay gave -0.44, -0.47, -0.55, -0.58, -0.61, -0.45 (controls 1 of 18).
For S25L V29E W56N S103I, the assay gave 0.29, 0.28, 0.36, 0.27, 0.36, 0.67 (controls 1 of 18).
For S25V V29E W56N T59L, the assay gave 0.75, 0.65, 0.35, 0.24, 0.24, 0.68 (controls 0 of 18).
For V29E W56N T59Q E61L, the assay gave -0.02, -0.05, -0.22, -0.33, -0.05, 0.25 (controls 0 of 18).
For S25L S26P V29H W56N, the assay gave -0.18, -0.12, -0.36, -0.26, -0.25, -0.13 (controls 1 of 18).
For S25L V29D N35M W56N E61M, the assay gave 0.10, 0.38, 0.06, 0.16, 0.21, 0.31 (controls 0 of 18).
For S25L V29M K36W W56N T59Q, the assay gave -0.07, -0.16, -0.39, -0.42, -0.29, -0.01 (controls 2 of 18).
For S25V S26Q V29E W56N T59Q, the assay gave 0.14, 0.21, 0.11, 0.35, 0.00, 0.06 (controls 2 of 18).
For S25V S26Q V29Q W56Q, the assay gave 0.04, -0.13, -0.18, -0.20, 0.11, 0.24 (controls 0 of 18).
For S25V S26P V29D W56E, the assay gave -0.03, -0.28, -0.31, -0.34, -0.32, -0.25 (controls 0 of 18).
For S25L S26P S38N W56N, the assay gave -0.29, -0.43, -0.49, -0.52, -0.62, -0.23 (controls 0 of 18).
For S25L V29D W56N E61M S62Q, the assay gave 0.17, -0.25, -0.18, -0.33, -0.07, -0.16 (controls 0 of 18).
For S25V V29Q L30G W56N, the assay gave -0.03, -0.02, -0.07, -0.22, -0.05, -0.01 (controls 0 of 18).
For S25L V29W W56N T59Q E61L Q96D, the assay gave 0.34, 0.00, 0.09, 0.22, 0.27, 0.32 (controls 2 of 18).
For S25L L30W S38N W56E, the assay gave -0.15, -0.20, -0.28, -0.43, -0.35, -0.22 (controls 0 of 18).

The last 7 entries again:

S25V S26Q V29Q W56Q: 0.04, -0.13, -0.18, -0.20, 0.11, 0.24 (controls 0 of 18).
S25V S26P V29D W56E: -0.03, -0.28, -0.31, -0.34, -0.32, -0.25 (controls 0 of 18).
S25L S26P S38N W56N: -0.29, -0.43, -0.49, -0.52, -0.62, -0.23 (controls 0 of 18).
S25L V29D W56N E61M S62Q: 0.17, -0.25, -0.18, -0.33, -0.07, -0.16 (controls 0 of 18).
S25V V29Q L30G W56N: -0.03, -0.02, -0.07, -0.22, -0.05, -0.01 (controls 0 of 18).
S25L V29W W56N T59Q E61L Q96D: 0.34, 0.00, 0.09, 0.22, 0.27, 0.32 (controls 2 of 18).
S25L L30W S38N W56E: -0.15, -0.20, -0.28, -0.43, -0.35, -0.22 (controls 0 of 18).

From the AlphaSeq antibody data of Li et al. 2023 (doi:10.1038/s41467-023-39022-2), copy in the FLAb collection.